Target: NOX4 (Homo sapiens, UniProt Q9NPH5)
Assay: cell-based

By UniProt entry, the sequences of proteins in these tests, tags left out.
UniProt Q9NPH5, whole entry, species assumed: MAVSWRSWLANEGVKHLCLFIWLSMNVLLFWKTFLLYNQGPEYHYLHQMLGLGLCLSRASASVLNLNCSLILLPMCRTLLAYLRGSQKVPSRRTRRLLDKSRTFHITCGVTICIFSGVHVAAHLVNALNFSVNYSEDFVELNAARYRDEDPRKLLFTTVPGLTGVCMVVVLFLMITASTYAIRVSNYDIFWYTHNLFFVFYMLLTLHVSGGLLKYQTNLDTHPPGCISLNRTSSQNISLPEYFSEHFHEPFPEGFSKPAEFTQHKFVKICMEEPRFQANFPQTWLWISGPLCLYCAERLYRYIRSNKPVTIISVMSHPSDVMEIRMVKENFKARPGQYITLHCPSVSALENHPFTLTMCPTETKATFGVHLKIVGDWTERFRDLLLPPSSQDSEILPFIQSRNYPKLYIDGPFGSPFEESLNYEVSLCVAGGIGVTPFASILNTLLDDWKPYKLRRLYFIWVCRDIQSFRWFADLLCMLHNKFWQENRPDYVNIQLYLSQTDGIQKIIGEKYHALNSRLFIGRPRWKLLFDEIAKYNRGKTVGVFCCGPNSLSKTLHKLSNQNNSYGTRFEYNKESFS

c1ccc2c(c1)[I+]c1ccccc1-2 [DPI, diphenyleneiodonium chloride]
IC50: < 500 nM

Reference: patent US20120141461A1, “COMPOSITIONS AND METHODS FOR DIAGNOSING AND TREATING FIBROTIC DISORDERS” (THE REGENTS OF THE UNIVERSITY OF MICHIGAN, priority 2009, published 2012)
